Test system: histamine
Experiment: Plasma histamine after peanut challenge (enzyme immunoassay)
Set-up: species or system C57BL/6 mice
Conditions: mouse, in vivo

CC(c1cc2ccccc2s1)N(O)C(N)=O (stereo not shown) [Zileuton]
levels of histamine in plasma, untreated vs. treated mice: comparable levels

Source: patent publication US20110217290A1, “TREATMENT AND/OR PREVENTION OF PEANUT INDUCED ANAPHYLAXIS” (priority 2009, published 2011)
